Source: PubChem (Broad Institute)
UUG fidelity: modulators of yeast start codon fidelity, primary screen, whole organism, S. cerevisiae, single point, plate reader; S. cerevisiae UUG-firefly luciferase reporter, luminescence/redox ratio; activity score, % at 18.7 µM; 0.13% of 350,000 active; AID 602363, 2012;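 active = replicate mean at a twofold rise or more, about +100% in these data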;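 also: firefly luciferase made from a UUG start codon reports start codon fidelity; reporter light over untreated wells divided by growth signal over untreated wells; some hits fall short of that in this replicate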
Cneo AK release: causes C. neoformans cell lysis; lysis activity, % at 15 µM; adenylate kinase release luminescence, 4 h; normalised: neutral wells 0, clomiphene wells 100; 360,000 compounds, 0.2% hits;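 active = mean lysis activity across replicates of at least 80%, whatever share of replicates individually reach that level; inactive = mean lysis activity below 80%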
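Assay system: Cryptococcus neoformans yeast cells / Dosing: single-point compound dose / Timing: 4 h at 37 °C static, read 1 h later / Measured by: luminescence of released adenylate kinase using an AK detection reagent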
Env fusion inh: HIV envelope-mediated fusion inhibition; 360,000 compounds, 1.1% hits; HeLa-JRFL Env/CEM21 cell fusion, luciferase; inhibition, % at 12.3 µM; AID 651610;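 active = mean replicate inhibition score of at least 50 and every replicate individually at or above 50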;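 note: 0% = plate neutral controls and 100% = maraviroc near 300 nM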
miR122 inh: miR-122 inhibition in Huh7 cells; AID 602342; Huh7 miR-122 Renilla luciferase sensor, 48 h; neutral wells = 0, positive control = 100; 340,000 compounds, 0.3% hits; activation (reporter increase), % at 12.5 µM;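 active = mean replicate activation score at least 90 and every replicate individually at or above 90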;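 note: higher luciferase means less miR-122 activity so hits act as miR-122 inhibitors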
FN deposit inh: fibronectin deposition inhibition. AH1F fibroblasts, Alexa488-fibronectin deposition fluorescence, overnight. 350,000 compounds, 0.086% hits. AID 743247. inhibition, % at 12.6 µM;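 active = mean inhibition across replicates of 30% or more, regardless of how many single replicates reach that level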;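 note: positive control wells lacked labelled fibronectin entirely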
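test system = AH1F fibroblasts assembling fluorescent fibronectin matrix | quantity = 10000 AH1F cells per well | buffer or medium = DMEM plus 2% serum, read in PBS | doses = single dose, pinned | incubation = 1 h cell attachment, overnight exposure to compound and label | detection = fluorescence at 485 nm excitation, 525 nm emission | read-out basis = inhibition from reduced deposited-fibronectin fluorescence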
PGC1a acetyl inh: modulators of PGC1a acetylation; U2OS PGC1a acetylation, AlphaScreen anti-acetyl-lysine; with virally co-expressed GCN5 acetyltransferase; AID 651687; 350,000 compounds, 0.17% hits; inhibition, % at 15.6 µM;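 active = every replicate shows inhibition of at least 40%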;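 note: 0% = neutral control wells and 100% = positive control wells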
* hit, by the source's call; x = not tested or not shown; ! = a repeat was not active; [ ] = another dose, or the depositor's remark. A selection: hits, their analogues and other compounds. The true share with any hit is near 1.5%.

Sample of the layout:
SMILES | UUG fidelity | Cneo AK release | Env fusion inh | miR122 inh | FN deposit inh | PGC1a acetyl inh
O=C(Nc1ccc(Cl)c(Cl)c1)N[C@H]1CC[C@H](CCn2cc(C3CCCCC3)nn2)O[C@@H]1CO | 1.1 | 3.2 | 62.8*[16.7 µM] | x | -11.5 | 14.2
O=C(Nc1ccc(Cl)c(Cl)c1)N[C@@H]1CC[C@@H](CCn2cc(C3CCCCC3)nn2)O[C@@H]1CO | 20.0 | 3.3 | 67.3*![16.7 µM] | x | -1.0 | -9.4
Cc1ccn2c(=O)nc(SCC(=O)Nc3cc(C)on3)nc2c1 | -10.3 | -1.8 | -19.2 | -4.5 | -2.4 | 15.8

The list itself, previewed entries included:
SMILES | UUG fidelity | Cneo AK release | Env fusion inh | miR122 inh | FN deposit inh | PGC1a acetyl inh
O=C(Nc1ccc(Cl)c(Cl)c1)N[C@H]1CC[C@H](CCn2cc(C3CCCCC3)nn2)O[C@@H]1CO | 1.1 | 3.2 | 62.8*[16.7 µM] | x | -11.5 | 14.2
O=C(Nc1ccc(Cl)c(Cl)c1)N[C@@H]1CC[C@@H](CCn2cc(C3CCCCC3)nn2)O[C@@H]1CO | 20.0 | 3.3 | 67.3*![16.7 µM] | x | -1.0 | -9.4
Cc1ccn2c(=O)nc(SCC(=O)Nc3cc(C)on3)nc2c1 | -10.3 | -1.8 | -19.2 | -4.5 | -2.4 | 15.8
O=C(Nc1ccc(O)c(-c2nc3ccccc3o2)c1)C1(c2ccc([N+](=O)[O-])cc2)CCCC1 | -12.6 | 0.7 | 55.1* | 3.0 | 6.1 | -16.7
C[C@H](CO)N1C[C@H](C)[C@@H](CN(C)S(=O)(=O)c2cn(C)cn2)Oc2c(NC(=O)Nc3ccccc3)cccc2C1=O | 4.2 | 96.7* | 19.7[16.7 µM] | 34.4[16.7 µM] | x | 2.8
C[C@H](CO)N1C[C@H](C)[C@@H](CN(C)S(=O)(=O)c2cn(C)cn2)Oc2c(NC(=O)Nc3ccc(F)cc3)cccc2C1=O | x | x | -12.3[16.7 µM] | 5.4[16.7 µM] | x | 4.2
C[C@@H]1CN([C@@H](C)CO)C(=O)c2cccc(NC(=O)Nc3ccccc3)c2O[C@H]1CN(C)S(=O)(=O)c1cn(C)cn1 | 15.6 | 96.7* | 31.7[16.7 µM] | 17.0[16.7 µM] | x | 9.5
C[C@@H]1CN([C@H](C)CO)C(=O)c2cccc(NC(=O)Nc3ccccc3)c2O[C@H]1CN(C)S(=O)(=O)c1cn(C)cn1 | -2.2 | 38.2 | 23.3[16.7 µM] | 4.2[16.7 µM] | x | -2.9
Nc1nnn(CC(=O)N/N=C/c2ccncc2)n1 | 0.5 | 1.3 | 16.3 | 5.4 | 3.6 | -2.2
COc1ccc(NC(=O)/C(C#N)=C/c2ccc3c(c2)n(C)c(=O)n3C)cc1 | -8.6 | 2.3 | x | -9.6 | 0.1 | 2.9
CCOC(=O)Cc1sc(N)nc1C | -18.0 | -2.1 | -5.9 | 10.4 | -8.4 | 4.4
COc1ccc(/C=C/c2ccc3cccc(O)c3n2)c(OC)c1OC | -13.2 | -8.1 | -356.1 | 15.9 | 34.8* | 1.9
COc1cccc(/C=C/c2ccc3cccc(O)c3n2)c1OC | -22.7 | -1.6 | -82.5 | 25.4 | 3.3 | x
CCCOc1cccc(CN2CCCCC2c2cccnc2)c1 (stereo not given) | -8.5 | -1.0 | 14.4 | -2.8 | -17.7 | -0.8
CC(C)C1CC(N(C)C)=CC(=S)N1 (stereo not given) | x | x | 58.3* | x | -9.3 | x
Cc1ccc(C(=O)Nc2ccc(CC(=O)O)cc2)o1 | -9.8 | -0.4 | -19.3 | 26.2 | -6.0 | x
CC(C)(C)c1ccc(C(=O)Nc2ccc(CC(=O)O)cc2)o1 | -28.7 | -1.7 | 84.7* | x | -2.2 | 1.4
C[C@H](CO)N1C[C@H](C)[C@H](CN(C)Cc2ccccc2)Oc2cc(-c3ccccc3)ccc2S1(=O)=O | 4.8 | x | 79.4*[16.7 µM] | -3.7[16.7 µM] | 8.5 | -9.2
C[C@H](CO)N1C[C@H](C)[C@@H](CN(C)Cc2ccccc2)Oc2cc(-c3ccccc3)ccc2S1(=O)=O | 9.6 | x | 46.3[16.7 µM] | 39.4[16.7 µM] | 7.3 | 13.8
CCC(=O)N(C)C[C@@H]1Oc2cc(C#CC(C)(C)O)ccc2S(=O)(=O)N([C@@H](C)CO)C[C@H]1C | 6.2 | 93.3* | -11.8[16.7 µM] | -3.5[16.7 µM] | 2.7 | 7.0

Three compounds out of the list above, sorted by their value in miR122 inh, high to low.
SMILES | UUG fidelity | Env fusion inh | miR122 inh | PGC1a acetyl inh
Nc1nnn(CC(=O)N/N=C/c2ccncc2)n1 | 0.5 | 16.3 | 5.4 | -2.2
O=C(Nc1ccc(O)c(-c2nc3ccccc3o2)c1)C1(c2ccc([N+](=O)[O-])cc2)CCCC1 | -12.6 | 55.1* | 3.0 | -16.7
COc1ccc(NC(=O)/C(C#N)=C/c2ccc3c(c2)n(C)c(=O)n3C)cc1 | -8.6 | x | -9.6 | 2.9

Additional entries:
SMILES | UUG fidelity | Cneo AK release | Env fusion inh | miR122 inh | FN deposit inh | PGC1a acetyl inh
C[C@@H]1CN([C@H](C)CO)S(=O)(=O)c2ccc(-c3ccccc3)cc2O[C@@H]1CN(C)Cc1ccccc1 | 17.7 | x | 64.6*[16.7 µM] | 34.8[16.7 µM] | 7.9 | -12.1
C[C@@H]1CN([C@@H](C)CO)S(=O)(=O)c2ccc(-c3ccccc3)cc2O[C@H]1CN(C)S(C)(=O)=O | 10.8 | 7.9 | 57.2*[16.7 µM] | 3.8[16.7 µM] | 5.4 | 0.6
CCC(=O)N(C)C[C@@H]1Oc2cc(C#CC(C)(C)O)ccc2S(=O)(=O)N([C@H](C)CO)C[C@@H]1C | -5.0 | -0.1 | -136.3[16.7 µM] | 2.0[16.7 µM] | 2.1 | -0.8
CCOC(=O)C1CCN(Cc2nc3ccc(Cl)cc3n2CCO)CC1 | -14.2 | 1.6 | -32.4 | -11.0 | 1.4 | x
O=C(NCCCN1CCOCC1)C1CCN(S(=O)(=O)c2cccc(C(F)(F)F)c2)CC1 | -25.4 | 0.8 | x | -5.6 | 2.6 | -2.1
CCC(=O)N(C)C[C@H]1Oc2cc(-c3ccccc3)ccc2S(=O)(=O)N([C@H](C)CO)C[C@H]1C | 4.9 | 88.5* | 4.1[16.7 µM] | -23.0[16.7 µM] | x | -1.1
Cc1ccccc1-c1ccc2c(c1)O[C@H](CN(C)C(=O)Nc1ccc(C(F)(F)F)cc1)[C@H](C)CN([C@H](C)CO)S2(=O)=O | 5.1 | 0.7 | 71.8*[16.7 µM] | -0.7[16.7 µM] | 5.8 | 16.9
Cc1noc(C)c1NC(=O)Nc1ccc2c(c1)CC(=O)N([C@@H](C)CO)C[C@@H](C)[C@@H](CN(C)Cc1ccc(C(=O)Nc3ccccc3N)cc1)O2 | x | x | x | x | -6.5 | 8.7
COc1ccc2c(=O)c3c(=O)n(Cc4ccco4)c(-c4ccc(C)cc4)nc3oc2c1 | 2.2 | -2.6 | -111.4 | 2.5 | x | 5.6
COc1cc(-c2nc3oc4ccccc4c(=O)c3c(=O)n2Cc2ccco2)cc(OC)c1OC | 8.2 | 11.3 | 92.3* | -13.9 | -7.6 | 3.0
CCOC(=O)N1CCN(c2ncnc3c2[nH]c2ccc(F)cc23)CC1 | -10.7 | -1.2 | 63.9* | -9.9 | -1.9 | x
CCOC(=O)N1CCN(c2ncnc3c2[nH]c2ccc(OC)cc23)CC1 | -2.2 | -1.4 | 1.7 | -4.7 | x | 0.3
CN1/C(=C\C(=S)Nc2ccccc2)C(C)(C)c2ccccc21 | x | x | 52.9* | -3.9 | 0.1 | -4.1
CN1/C(=C\C(=O)Nc2ccc(Cl)cc2)C(C)(C)c2ccccc21 | x | x | -4.8 | x | -15.5 | x
Nc1nonc1C(=O)N1CCCC1 | -16.6 | -1.4 | 0.9 | 247.0* | x | -8.6
Nc1nonc1/C(=N/O)N1CCCC1 | -1.5 | 0.6 | -67.1 | -1.6 | 1.8 | -5.9
CCCC(=O)Nc1ccc2c(c1)OC[C@@H](C)N(C(=O)c1ccccn1)C[C@H](C)[C@@H](OC)CN(C)C2=O | -4.3 | 4.9 | x | x | 0.7 | 1.2
CC(C)(C)c1ccc(NC(=O)N2CCN(c3ccc([N+](=O)[O-])cn3)CC2)cc1 | x | x | 15.0 | x | 7.2 | -191.5
C[C@@H]1CN([C@H](C)CO)C(=O)c2cc(C#CC(C)(C)O)cnc2O[C@@H]1CN(C)Cc1cncnc1 | 13.9 | 84.9* | 3.7[16.7 µM] | 48.5[16.7 µM] | -1.5 | 4.5
C[C@@H]1CN([C@H](C)CO)C(=O)c2cc(C#CC3(O)CCCC3)cnc2O[C@@H]1CN(C)Cc1cccnc1 | x | x | x | x | -1.8 | 3.8
COc1ccccc1-c1cnc2c(c1)C(=O)N([C@@H](C)CO)C[C@H](C)[C@H](CN(C)Cc1cncnc1)O2 | -9.4 | -1.1 | -14.6[16.7 µM] | 21.8[16.7 µM] | x | 1.0
C[C@H](CO)N1C[C@H](C)[C@H](CN(C)Cc2cccnc2)Oc2ncc(C#CC3(O)CCCC3)cc2C1=O | 15.3 | 97.9* | -14.2[16.7 µM] | 4.9[16.7 µM] | -5.0 | -11.7
COc1ccccc1-c1cnc2c(c1)C(=O)N([C@H](C)CO)C[C@@H](C)[C@H](CN(C)Cc1cncnc1)O2 | 9.8 | 82.0* | -7.1[16.7 µM] | 4.7[16.7 µM] | x | 8.7
